This passage reports IC50 and Ki results from patent US8163737B2 (Vertex Pharmaceuticals Incorporated, priority 2006, dated 2012).

The chains behind the UniProt entries cited, without tags or fusion partners. Residues count along the entry.
UniProt O60894, 27-148 limits assumed: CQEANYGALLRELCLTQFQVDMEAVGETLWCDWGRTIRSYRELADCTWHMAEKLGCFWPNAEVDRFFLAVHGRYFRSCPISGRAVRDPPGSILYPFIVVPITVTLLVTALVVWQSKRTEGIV
UniProt Q16602, 23-461 limits assumed: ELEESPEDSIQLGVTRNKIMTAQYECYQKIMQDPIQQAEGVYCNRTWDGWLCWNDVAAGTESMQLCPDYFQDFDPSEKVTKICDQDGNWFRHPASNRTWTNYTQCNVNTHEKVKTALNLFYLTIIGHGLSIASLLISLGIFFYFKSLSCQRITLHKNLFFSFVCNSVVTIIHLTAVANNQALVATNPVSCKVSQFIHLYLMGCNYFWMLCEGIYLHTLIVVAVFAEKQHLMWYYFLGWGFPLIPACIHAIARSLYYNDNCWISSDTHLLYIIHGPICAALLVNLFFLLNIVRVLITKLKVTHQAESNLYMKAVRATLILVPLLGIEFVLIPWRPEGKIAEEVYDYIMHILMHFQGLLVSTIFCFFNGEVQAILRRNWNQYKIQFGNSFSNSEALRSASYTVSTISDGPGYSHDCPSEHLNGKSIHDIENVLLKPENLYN

One assay addresses endogenous CGRP receptor (Homo sapiens, UniProt O60894+Q16602). As to the kind of experiment: CGRP functional antagonism using SK-N-MC-BLA (4C10), β-lactamase transcriptional reporter assay. Conditions: SK-N-MC (4C10) cells, inhibition of β-lactamase expression in the presence of 200 pM CGRP. It is filed as cell-based. (In a reporter assay the amount or activity of a reporter protein is the signal.)

Assay [1] has as its target CGRP receptor (SK-N-MC membrane) (Homo sapiens, UniProt O60894+Q16602). Description: I125-CGRP binding displacement assay on purified SK-N-MC membrane.

One may read the IC50 as the midpoint of a concentration-inhibition curve. As to `CC(C)C[C@H](CO)N1C(=O)C(CC(=O)N2CCC(N3Cc4ccccc4NC3=O)CC2)SC1c1ccccc1` (single isomer, unassigned) [117], the IC50 at endogenous CGRP receptor was in the range of 1000 to 5000 nM.

Consider `CC(C)(C)CCN1C(=O)C(CC(=O)N2CCC(N3Cc4ccccc4NC3=O)CC2)SC1c1cccc(F)c1F` (stereo not drawn), for which the 50% inhibitory concentration (IC50) on endogenous CGRP receptor is below 1000 nM.

The term Ki denotes a measure of affinity in units of concentration, obtained from inhibition or displacement. Low readings indicate higher affinity, high ones lower affinity. In the case of `CC(C)CCN1C(=O)C(CC(=O)N2CCC(N3Cc4ccccc4NC3=O)CC2)SC1c1ccccc1N1CCCCC1` (stereo not drawn), the concentration for half-maximal inhibition (IC50) on endogenous CGRP receptor was below 1000 nM. Also, the Ki in assay [1] is below 1000 nM.

As for `CC(C)(C)CCN1C(=O)C(CC(=O)N2CCC(n3c(=O)[nH]c4ccccc43)CC2)SC12CCCc1ccccc12` (stereo not drawn), at endogenous CGRP receptor, the IC50 was above 5000 nM.

In the case of `CC(C)CCN1C(=O)C(CC(=O)N2CCC(N3Cc4ccccc4NC3=O)CC2)SC1c1ccccc1N1CCN(C)CC1` (stereo not drawn), the half-inhibitory concentration (IC50) at endogenous CGRP receptor is below 1000 nM. The compound also came in with an inhibition constant Ki in assay [1] below 1000 nM.

Take `CC(C)CCN1C(=O)C(CC(=O)N2CCC(N3Cc4ccccc4NC3=O)CC2)SC1c1ccccc1N1CCOCC1` (stereo not drawn): the concentration for half-maximal inhibition (IC50) at endogenous CGRP receptor was below 1000 nM. Besides, the Ki in assay [1] was below 1000 nM.

Regarding `CC(C)CCN1C(=O)C(CC(=O)N2CCC(N3Cc4ccccc4NC3=O)CC2)SC1c1cccnc1N1CCOCC1` (stereo not drawn), the 50% inhibitory concentration (IC50) on endogenous CGRP receptor is below 1000 nM.

As to `CC(C)CCN1C(=O)C(CC(=O)N2CCC(N3Cc4cccnc4NC3=O)CC2)SC1c1ccccc1N1CCN(C)CC1` (stereo not drawn), the IC50 at endogenous CGRP receptor was below 1000 nM.

Consider `CC(C)CCN1C(=O)C(CC(=O)N2CCC(N3Cc4ccccc4NC3=O)CC2)SC1c1ccccc1-n1ccnc1` (stereo not drawn), for which the IC50 at endogenous CGRP receptor is below 1000 nM. Further, the Ki in assay [1] is below 1000 nM.

`CC(C)C[C@H](CO)N1C(=O)C(CC(=O)N2CCC(N3Cc4ccccc4NC3=O)CC2)SC1c1ccccc1` (single isomer, unassigned) [133]: the half-inhibitory concentration (IC50) on endogenous CGRP receptor was above 5000 nM.

Take `CC(C)CC(CO)N1C(=O)C(CC(=O)N2CCC(N3Cc4ccccc4NC3=O)CC2)SC1c1ccccc1` (stereo not drawn): on endogenous CGRP receptor, the half-inhibitory concentration (IC50) is 1000 to 5000 nM.

For the compound `CC(C)CCN1C(=O)C(CC(=O)N2CCC(N3Cc4ccccc4NC3=O)CC2)SC1c1ccccc1N1CCC(O)CC1` (stereo not drawn), the 50% inhibitory concentration (IC50) on endogenous CGRP receptor was below 1000 nM. Besides, the inhibition constant Ki in assay [1] was below 1000 nM.

On to `CC(C)CCN1C(=O)C(CC(=O)N2CCC(N3Cc4ccccc4NC3=O)CC2)SC1c1ccccc1-n1cccn1` (stereo not drawn), for which the IC50 on endogenous CGRP receptor is below 1000 nM. The compound further displayed a Ki in assay [1] below 1000 nM.

For `CN1CCN(c2cccc(F)c2C2SC(CC(=O)N3CCC(n4cc(-c5ccccc5)[nH]c4=O)CC3)C(=O)N2CCC(C)(C)C)CC1` (stereo not drawn), the IC50 at endogenous CGRP receptor was below 1000 nM. Moreover, the Ki in assay [1] is below 1000 nM.
